# PTHR1 ag = PTHR1 (human) receptor agonism. Q03431. HEK293 GP2 PTHR1 cells, GloSensor cAMP luminescence, 1 h. Potency, µM (doses to about 115 µM), without a hit: at the top dose activation, most hits filed as activators. 410,000 tested, 0.075% active. AID 743266; further: potency means the concentration at half of the fitted maximal effect; nearly all actives have a fitted effect of over 55% in size
#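 HEK-293-derived GP2 cells expressing PTHR1 and a GloSensor cAMP reporter, 3,000/well, plated overnight, given luciferin plus IBMX (each 0.5 mM as added) for 1 h at 37 °C, then compound for 1 h at 37 °C. Luminescence was read after 15 min at room temperature.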
# GLP1R ag = GLP-1 receptor (human) agonism; P43220; HEK293 GLP-1R CRE-luciferase, luminescence, 4-6 h; cells express a hypersensitive GLP-1R form; Potency, µM (doses to about 45.6 µM), inactives show at the highest dose activation, most hits filed as activators; 380,000 tested, 0.007% active; AID 624172; further: potency means the concentration at half of the fitted maximal effect; % of control where 0% means no effect
# Pin1 inhibitor = human Pin1 inhibition | Pin1 FP peptide displacement, HiFluor488, 10 min | 390,000 tested, 0.009% active | Potency, µM (top dose mostly 115 µM), inactives show at the highest dose activity, negative = inhibition, usual class: inhibitors; active means well fitted inhibition curve with a large enough effect in the polarisation, with a control signal flat, not every such curve was filed as active; inconclusive means small, poorly fitted or top-dose-only effect, or effect the other way, or a change in a side signal; inactive means no such curve, though single readings can be large or run the other way; the % refers to the polarisation; further: potency means the concentration at half of the fitted maximal effect; on the % scale 0 is the no-effect control and ±100 the full control effect
# HEK293 tox = cytotoxic in the GLP-1 receptor inverse agonist counter-screen. HEK293 cAMP-luciferase reporter cells, luminescence, 24 h. Potency, µM (series often up to 38.3 µM), inactives show at the top dose activity change, negative = inhibition, usual class: inhibitors. 410,000 tested, 0.13% active;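 further: loss of luciferase light is scored as toxicity; potency means the concentration at half of the fitted maximal effect; on the % scale 0 is the no-effect control and ±100 the full control effect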
#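 Seeding density was 200 cells/uL; after overnight-length (12 h) culture, 23 nL compounds went on for 24 h at 37 °C. Readout used a luciferase detection reagent, luminescence taken after 12 min at room temperature.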
# GLP1R inv ag = GLP-1 receptor (human) inverse agonism; 410,000 tested, 1.6% active; Potency, µM (highest dose often 38.3 µM), for inactives: at the top dose activity change, negative = inhibition, actives largely listed as inhibitors; AID 624417; HEK293 GLP-1R CRE-luciferase, luminescence, 24 h; GLP-1R form is constitutively active; P43220; further: potency means the concentration at half of the fitted maximal effect; on the % scale 0 is the no-effect control and ±100 the full control effect; nearly all actives have a fitted effect of over 55% in size
#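 Assay principle: reduced luminescence from a cAMP-responsive reporter in HEK293 cells co-expressing a constitutively active GLP-1R. Conditions: 24 hr compound incubation, 37 deg C, 5% CO2.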
# miR-21 reporter = raises the signal of a miR-21 reporter | Potency, µM (doses to about 38.3 µM), for inactives: top-dose reporter change, positive = more light | HeLa miR-21 FLuc reporter, luciferase, 48 h | AID 2288 | 340,000 tested, under 10 active; active = well fitted rising curve with a large enough effect; inconclusive = small, poorly fitted or top-dose-only effect; inactive = no such curve, though single readings can be large or run the other way;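 also: % of control where 0% means no effect; miR-21 action dims this reporter so a rising signal means less miR-21 action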
#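 HeLa miR-21-FLuc reporter line, endogenous miR-21; 2000 cells/well in DMEM/10% FBS; compound titration up to ~40uM final, 48 h, 37 degree Celsius; luciferase detection reagent, 15 min lysis, CCD luminescence.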
# Numbers without * were called inactive; i = inactive; u = inconclusive; x = no result given; [ ] = remark or other dose. Rows were chosen to be rich in hits. Some 1.7% of all compounds tested hit in one or more screens of this group. Unless noted, the call rests on the fitted dose curve; in most records, active means well fitted curve in the direction sought with a large enough effect; inconclusive means small, poorly fitted or top-dose-only effect, or another doubt; inactive means no such curve, though single readings can be large; an effect the other way counts as inactive or inconclusive.
SMILES,PTHR1 ag,GLP1R ag,Pin1 inhibitor,HEK293 tox,GLP1R inv ag,miR-21 reporter
COc1ccccc1C(=O)NC1CCCCCCC1,-12%,16%,-4%,-7%,7.1µM*,-53%
O=C(NC1CCCC1)c1cccc(Oc2ccccc2)c1,-21%,21%,-3%,-3%,10µM*,-34%
O=S(=O)(c1ccc2[nH]c3c(c2c1)CCCCC3)N1CCN(c2cccc(Cl)c2)CC1,i,x,1%,-15%,u,25%
CNc1nc(SCc2ccccc2Cl)nc2c1CCCC2,-4%[57.5 µM],2%,u,-17%,10µM*,-4%
c1ccc(-n2cc(CN3CCCC3)c(-c3ccc4c(c3)OCO4)n2)cc1,-4%,-1%,0%,-6%,u,-20%
c1ccc(Cn2cc(CN3CCCCO3)c(-c3ccc4c(c3)OCO4)n2)cc1,-33%,3%,1%,-9%,11µM*,-1%
COc1cccc(CNC(C)(C)CO)c1OCc1ccc(Cl)cc1,i,6%,-3%,-4%,11µM*,-1%
CC(C)(CO)NCc1cccc(OCc2ccc(Cl)cc2)c1,i,3%,-1%,20%,u,-30%
CN(C)CCNC(=O)c1ccc2c(c1)N(Cc1ccc(F)cc1)CCS2,-14%,-3%,0%,1%,3.2µM*,-13%
O=C(NCC1CCCO1)c1ccc2c(c1)N(Cc1ccc(Cl)cc1)CCS2 (stereo not given),-17%,8%,x,-17%,10µM*,x
Cc1ccc(CN2CCSc3ccc(C(=O)NCC4CCCO4)cc32)cc1 (stereo not given),i,2%,0%,0%,u,2%
Cc1ccc(CN2CCSc3ccc(C(=O)NCCCN4CCN(C)CC4)cc32)cc1,i,30%,-5%,u,5.6µM*,-16%
Clc1ccc(Nc2nnc(Cc3ccncc3)c3ccccc23)cc1,x,4%,x,x,x,x
C=C(CC1([C@@H](NP(=O)(c2ccccc2)c2ccccc2)[C@H]2C[C@@H]2CCCC)CC1)c1ccccc1,-68%,1%,-1%,9%,2.5µM*,-10%
Fc1ccccc1N1CCN(c2cnc3ccccc3n2)CC1,-26%[57.5 µM],0%,4%,-3%,10µM*,-24%
COc1cccc2c1[C@@H]1CN(CCCCn3c(=O)[nH]c4c(sc5ncc(-c6ccccc6)nc54)c3=O)C[C@@H]1CO2,26%,-3%,u,-22%,10µM*,x
COc1cc2[nH]c(=O)n(CCCC(=O)N3CC=C(c4ccccc4)CC3)c(=O)c2cc1OC,i,4%,2%,0%,17%,-4%
O=C(Nc1ccc(Cl)c(C(F)(F)F)c1)C1CCCN(S(=O)(=O)c2cccc3cccnc23)C1 (stereo not given),i,x,0%,1%,42%,-2%
Cc1ccc(NC(=O)C2CCCN(S(=O)(=O)c3cccc4cccnc34)C2)cc1Cl (stereo not given),-7%,x,9%,-12%,10µM*,23%
Cc1ccc(C)c(N2CCN(S(=O)(=O)c3cccc4cccnc34)CC2)c1,i,15%,23%,4%,10µM*,1%
CN(C)CC/C=C1\c2ccccc2Sc2cc(F)c(Cl)cc21,-18%,0%,3%,u,7.9µM*,x
CN(C)CC/C=C1\c2ccc(F)cc2Sc2cc(F)c(Cl)cc21,-24%,-3%,5%,u,7.9µM*,x
Cc1ccc(NC(=O)c2oc3ccc(S(=O)(=O)N4CCCCCC4)cc3c2C)c(C)c1,-20%,x,2%,1%,13%,-4%
Cc1ccc(S(=O)(=O)c2ccc([N+](=O)[O-])cn2)cc1,-22%,-4%,2%,u,7.9µM*,u
COc1ccc(CN(C)C(c2ccccc2)c2nnnn2-c2ccccc2C)c(OC)c1C (stereo not given),-1%,2%,4%,1%,10µM*,0%

# Three compounds from above, arranged by SMILES length, lowest first:
SMILES,PTHR1 ag,GLP1R ag,Pin1 inhibitor,HEK293 tox,GLP1R inv ag,miR-21 reporter
Cc1ccc(S(=O)(=O)c2ccc([N+](=O)[O-])cn2)cc1,-22%,-4%,2%,u,7.9µM*,u
O=S(=O)(c1ccc2[nH]c3c(c2c1)CCCCC3)N1CCN(c2cccc(Cl)c2)CC1,i,x,1%,-15%,u,25%
O=C(Nc1ccc(Cl)c(C(F)(F)F)c1)C1CCCN(S(=O)(=O)c2cccc3cccnc23)C1 (stereo not given),i,x,0%,1%,42%,-2%
